Results from ChEMBL document CHEMBL5226283, “Reactive Oxygen Species (ROS)-Responsive Prodrugs, Probes, and Theranostic Prodrugs: Applications in the ROS-Related Diseases” (J Med Chem, 2021).

How the values were obtained:
Parameters in all cases: scale not given: the % may be the effect or the level left
[1] = test system: SR; assay: Antiproliferative activity against human SR cells assessed as cell growth inhibition at 10 uM by SRB assay
[2] = test system: NCI-H460; assay: Antiproliferative activity against human NCI-H460 cells assessed as cell growth inhibition at 10 uM by SRB assay
[3] = test system: CAKI-1; assay: Antiproliferative activity against human CAKI-1 cells assessed as cell growth inhibition at 10 uM by SRB assay
[4] = test system: SN12C; assay: Antiproliferative activity against human SN12C cells assessed as cell growth inhibition at 10 uM by SRB assay

Question: What does the source list for `C[N+](CCCl)(CCCl)Cc1ccc(B(O)O)cc1.[Br-]`?
Answer: Activity [1]: 90%; Activity [2]: 85%; Activity [3]: 66%; Activity [4]: 57%

Some compounds may have been tested in ways that are not shown here.
